Values of other authors as cited in article PMC6028563, “Probing Substituents in the 1- and 3-Position: Tetrahydropyrazino-Annelated Water-Soluble Xanthine Derivatives as Multi-Target Drugs With Potent Adenosine Receptor Antagonistic Activity” (Frontiers in Chemistry, 2018).
pKi: −log10 of the molar value.

Biological target: A3 AR
Parameters: method as in Müller and Jacobson (2011); Brunschweiger et al. (2014)
Settings: rat (r); standard antagonists; ref Müller and Jacobson (2011); Brunschweiger et al. (2014); read-out: Ki, A3 vs. [^3H]PSB-11; cited from earlier work

Compound: Cn1c(=O)c2c(ncn2C)n(C)c1=O [Caffeine, caffeine]
- pKi: < 5.00
